Measured values from ChEMBL document CHEMBL1130156, “Evolution of the Dmt-Tic pharmacophore: N-terminal methylated derivatives with extraordinary delta opioid antagonist activity” (J Med Chem, 1997).

Amino acid sequences for entries named in this document (tags omitted).
UniProt P33533, whole entry, looked up: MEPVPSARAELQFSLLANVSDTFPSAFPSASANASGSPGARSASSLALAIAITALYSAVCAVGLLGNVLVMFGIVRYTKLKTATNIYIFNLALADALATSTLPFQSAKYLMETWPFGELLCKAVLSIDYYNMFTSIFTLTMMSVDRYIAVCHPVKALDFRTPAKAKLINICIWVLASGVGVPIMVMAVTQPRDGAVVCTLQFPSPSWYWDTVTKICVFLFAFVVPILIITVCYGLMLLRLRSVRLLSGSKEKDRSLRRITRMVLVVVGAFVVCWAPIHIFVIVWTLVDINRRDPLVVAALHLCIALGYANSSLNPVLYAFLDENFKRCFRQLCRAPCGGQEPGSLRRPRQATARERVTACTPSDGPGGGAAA
UniProt P33535, whole entry, looked up: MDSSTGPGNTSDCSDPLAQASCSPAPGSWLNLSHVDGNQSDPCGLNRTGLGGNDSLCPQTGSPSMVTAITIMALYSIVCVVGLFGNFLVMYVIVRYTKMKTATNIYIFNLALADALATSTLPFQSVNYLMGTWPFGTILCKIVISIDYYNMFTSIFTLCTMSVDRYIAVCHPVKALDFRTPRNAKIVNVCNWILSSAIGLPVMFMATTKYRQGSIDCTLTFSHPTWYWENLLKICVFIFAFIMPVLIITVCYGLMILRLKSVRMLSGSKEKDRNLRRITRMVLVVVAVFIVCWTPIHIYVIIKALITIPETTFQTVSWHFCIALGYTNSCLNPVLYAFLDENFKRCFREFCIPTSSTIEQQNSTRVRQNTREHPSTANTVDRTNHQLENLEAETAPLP

Target: Opioid receptors; mu & delta (Rattus norvegicus) (UniProt P33533+P33535)
Assay: Ratio of the affinity for delta and mu opioid receptors (Ki mu/Ki delta) shows delta opioid receptor selectivity
Format: protein assay

Cc1cc(O)cc(C)c1C[C@H](N)C(=O)N1Cc2ccccc2CC1C(N)=O (stereo partly specified)
Ratio: 227
